## Binding of CDR-mutated scFvs to a peptide of the spike HR2 region

Antigen: PDVDLGDISGINAS, a 14-residue peptide of the SARS-CoV-2 spike HR2 region.

Parent: Ab-14, a human scFv built as VH, three GGGGS repeats, VL. Only the CDRs of the heavy chain vary.
VH: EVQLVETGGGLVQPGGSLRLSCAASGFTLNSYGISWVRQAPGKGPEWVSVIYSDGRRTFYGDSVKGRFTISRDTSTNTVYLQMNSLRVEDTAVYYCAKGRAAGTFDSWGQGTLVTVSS
VL: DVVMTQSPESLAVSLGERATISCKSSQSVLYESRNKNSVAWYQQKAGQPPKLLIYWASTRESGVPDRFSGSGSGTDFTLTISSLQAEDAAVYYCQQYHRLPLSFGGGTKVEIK

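The parent was found by panning a naive human phage display library on the peptide. Designed CDR sequences, proposed from the first random library and measured here. Several design methods are mixed in this list. AlphaSeq pools MATa yeast showing the antibodies with MATalpha yeast showing the peptide. The frequency of each diploid, read from paired DNA barcodes, reflects how well the two displayed proteins bind. A regression on co-assayed BCL2-family reference pairs converts the normalised counts of each replicate to an apparent Kd. Mating was done six times.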

The parent's heavy chain CDRs are GFTLNSYGIS, VIYSDGRRTFYGDSVK, GRAAGTFDS; each variant's own CDRs replace them letter for letter. Affinities are written as log10 Kd with Kd in nM; a lower number is a better binder. A mean of the replicates is given; it leaves out those without a signal. "nd" means that the variant was in the library but no mating with the target was seen in any replicate; the authors take this as a sign of poor binding, and no number exists. The authors' rule: three or more of the six replicates give a measured affinity, fewer mean a poor binder.

CDR-H1,CDR-H2,CDR-H3,mean log10 Kd (nM),replicates with signal,control signals
GFTLNSYGVS,VIYSDGFRTFYGDSVK,GRAAGTFDS,2.61,2/6,1/18
GFTLNSYGIS,VRYADGVRTFYGDSVK,GRAAGTFDS,nd,0/6,0/18
GFDLNSYGIS,VIYSDGRRTFYADSVK,GRTAGTFDT,0.05,6/6,0/18
GFSLNSYGIS,VIYSDGRRTFYIDDVK,GQAAGTFDS,0.49,6/6,0/18
GFDLNEYGIS,VIYADGMRKAYVDSVK,GNVAGTFDV,-0.61,6/6,0/18
GFDLEEYGIS,VIYADGQRTFYADSVK,GNVAGTFDV,-0.68,6/6,0/18
GFDLNEYGIS,VIYADGMRTAYTDSVK,GNVAGTFDL,-0.33,6/6,0/18
GFYLNSYGIS,VIYSDGRRTFYADSVK,GQLAGTFDS,1.35,6/6,1/18
GFHLDEYGIS,VIYADGRRVFYQDKVK,GHHGTVAVM,nd,0/6,0/18
GFNLNSYGIS,VIYSDGRRTFYSDSVK,GRSAGTFDS,1.56,4/6,0/18
GFTLNSFGIS,VIYSDGRRTAYGDSVK,GRAQGTFDS,nd,0/6,0/18
GFDLKEYGIS,VIYADGERAGYADNVK,GEAGGKFLV,2.05,3/6,0/18
GFDLNEYGIS,VIYADGKRTFYSDSVK,GNAAGTFDV,-0.31,6/6,0/18
GTTLNSYGIS,VIYADGRRTFYGDSVK,GRAAGTFKS,nd,0/6,0/18
GFDLNEYGIS,VIYADGRRTAYADSVK,GNTAGTFDQ,-0.36,6/6,0/18
GSTLNEYGIS,VIYSDGRRTFYTDSVK,GRNAGTFDS,0.51,6/6,0/18
GFDLNEYGIS,VIYADGQRTAYTDSVK,GTNAGTFDV,-0.68,6/6,0/18
KFSLNSYGIS,VIYSDGRRTFYGDSVK,GRNAGTFDS,nd,0/6,0/18
GFGLDEYGIS,VIYADGRRTFYADSVK,GEVAGTFDM,-0.47,6/6,0/18
GFNLNSYGIS,VIYSDGRRTFYADRVK,GRNAGTFDS,1.10,2/6,0/18
GFSLNSYGIS,VIYSDGRRTFYGDAVK,GEAAGTFDN,0.84,6/6,3/18
GFDLNQYGIS,VIYSDGRRTFYGDSVK,GEAAGTFDS,0.18,6/6,3/18
GFSLNSYGIS,VIYSDGMRTFYKDSVK,GRTAGTFDS,nd,0/6,0/18
GFDLNSYGIS,VIYSDGRRTFYHDSVK,GMAAGTFDS,0.31,6/6,0/18
GFELNTYGIS,VIYSDGRRTFYADSVK,GQAAGTFDS,0.49,6/6,0/18
GFDLNEYGIS,VIYADGMRTFYADDVK,GEVAGTFDV,0.27,6/6,0/18
GFTLNSYGIS,VIYSDGRRTFYGDSVK,GQEAGTFDQ,0.72,6/6,0/18
GFGLDEYGIS,VIYADGVRRSYVDNVK,GFDGEKSIV,nd,0/6,0/18
GFDLNSYGIS,VIYSDGWRTFHGDSVK,GRAAMTFDS,nd,0/6,0/18
GFELNSYGIS,VIYSDGRRTFYTDDVK,GNTAGTFDS,0.34,6/6,0/18
GFDLNEYGIS,VIYADGRRTFYADNVK,GEVAGTFIV,1.49,3/6,0/18
GFDLNEYGIS,VIYADGRRTAYADSVK,GQNAGTFDL,nd,0/6,0/18
GFNLNSYGIS,VIYSDGRRTFYGDMVK,GKQAGTFDS,1.77,5/6,0/18
GFDLDEYGIS,VIYADGRRTAYTDSVK,GQNAGTFDV,-0.70,6/6,0/18
GFDLNEYGIS,VIYADGVRTVYADSVK,GTNAGTFDV,-0.55,6/6,0/18
GFTLNQYGIS,VIYSDKRRTFYSDSVK,GRAAGFFDS,nd,0/6,1/18
GFDLNEYGIS,VIYADGRRTFYADSVK,GEAAGTFNM,-0.24,6/6,0/18
GQSLDDYGIS,VIYADGMRKAYVDDVK,GYVAGTFDI,-0.32,6/6,0/18
GFTLNYYGIH,VIYSDGRRTFYSDSVK,GRAGGTFDS,nd,0/6,0/18
GFDLNSYGIS,VIYSDGRRTFYHDSVK,GRVAGTFDS,0.53,5/6,0/18
GFDLEEYGIS,VIYADGIRCSYAQAFK,GKNGQVFAV,nd,0/6,1/18
GFTENSYGIS,VIYSDGRRTHYGDSVK,GRAAGTFDS,nd,0/6,1/18
GFTLNSYGIG,VIYSDGRRTFYDDSVK,GQLAGTFWS,2.66,1/6,2/18
GFDLNEYGIS,VIYADGVRTFYTDSVK,GETAGTFDV,-0.60,6/6,0/18
GFSIDEYGIS,VIYADGMRTATVNSVK,GTIDNNITT,0.97,6/6,0/18
GFTLNSYGIS,VIYSDGRRTFYGDSVK,SKAAGTFDS,nd,0/6,0/18
GFTLNEYGIS,VIYSDGERTFYTDSVK,GKLAGTFDS,-0.33,6/6,0/18
GFDLNEYGIS,VIYADGRRTFYSDSVK,GTNAGTFDV,-0.27,6/6,1/18
GFELNSYGIS,VIYSDGRRTFYVDSVK,GRTAGTFDS,nd,0/6,0/18
GFELNSYGIS,VIYSDGRRTFYADNVK,GRTAGTFDS,1.04,1/6,0/18
GFGLNSYGIS,VIYSDGRRTFYGDSVK,GKIAGTFDS,0.75,4/6,0/18
GFTLNEYGIS,VIYSDGRRTMYTDSVK,GRNAGTFDS,0.22,6/6,1/18
GFTLNSYGIS,VIYSDGLREFYADSVK,GPAAGTFDS,nd,0/6,0/18
GFDLDEYGIS,VIYADGRRTFYADSVK,GGNAGTFDQ,0.63,6/6,0/18
GFDLEDYGIS,VIYADGKRTFYADSVK,GNVAGTFDV,-0.55,6/6,0/18
GFTLESYGIS,VIYSDGRRTFYDDSVK,GQNAGTFDS,0.51,6/6,0/18
GFSLDEYGIS,VIYADGRRTFYADSVK,GEAAGTFDI,-0.57,6/6,0/18
GFDLNEYGIS,VIYADGVRTAYANDVK,GNVAGTFDV,-0.18,6/6,0/18
GFSLNDYGIS,VIYSDGRRTFYGDSVK,GRAADTFDS,nd,0/6,1/18
GFDLNEYGIS,VIYADGMRKAYADDVK,GNVAGTFDI,-0.62,6/6,0/18
GFDLNEYGIS,VIYADGMRTAYADSVK,GQLAGTFDV,0.71,6/6,0/18
GFSLNSYGIS,VIYSDGRRTFYADSVK,GEAAGTFDN,0.34,6/6,0/18
GFQLNDYGIS,VIYSDGRRTFYIDKVK,GKTAGTFDS,0.58,4/6,0/18

Three control strains display no target. For all heavy chain designs, 1% of the pairings with them gave a signal, with a median of 2.08 and one signal in twenty below 0.84, so weak values seen in few replicates may be background. Also given: how often the same scFv was detected with the empty control strains. Of ten entries with the parent sequence, four were seen in most replicates (averages 0.34 to 2.37), three in one and three in none, so single entries are noisy. The range of this assay differs from that of the first round, and the authors advise against merging the two.

From the AlphaSeq antibody data of Li et al. 2023 (doi:10.1038/s41467-023-39022-2), copy in the FLAb collection.